The values below are quoted from earlier work in the PKSmart pharmacokinetics tables (Seal et al. 2025).

Data set [1] can be described thus: Lombardo, Berellini, Obach 2018, Drug Metab Dispos 46:1466, doi 10.1124/dmd.118.082966. As to conditions: human; for fraction unbound: plasma.
Data set [2] is described as follows: Lombardo et al. 2013, J Clin Pharmacol 53:178, doi 10.1177/0091270012440282. The settings on record: for fraction unbound: plasma.

SMILES strings stand for the structures.

Broadly, the fraction unbound is free concentration divided by total concentration. `NC(=O)c1ncn([C@@H]2O[C@H](CO)[C@@H](O)[C@H]2O)n1`: the unbound share (fraction unbound) in data set [1] was 1.

As a reminder, the clearance is the rate of elimination divided by the concentration. `Cc1cn([C@H]2C[C@H](N=[N+]=[N-])[C@@H](CO)O2)c(=O)[nH]c1=O`: the fraction unbound in data set [2] (monkey) is 0.707. In addition, the clearance in data set [1] (in vivo, iv) was 25 mL/min/kg.

Regarding `CC(C)NCC(O)COc1ccc(COCCOC(C)C)cc1` (configuration not stated), in data set [2] (monkey), the fraction unbound is 0.75.

Regarding `C[C@@H](CN1CC(=O)NC(=O)C1)N1CC(=O)NC(=O)C1`, the fraction unbound in data set [1] is 1.

Consider `CC(C)NCC(O)COc1cccc2[nH]ccc12` (configuration not stated), for which the free fraction (fraction unbound) in data set [2] (dog) was 0.556.

What is called Vd is the apparent volume that relates the amount in the body to the concentration in plasma or blood. In the case of `Cn1c(=O)c2[nH]cnc2n(C)c1=O`, the volume of distribution (Vd) in data set [2] (rat, in vivo, iv) was 0.55 L/kg.
